# Experimental data taken from US7183251B1, “hCG therapy for the treatment of breast cancer” (Fox Chase Cancer Center, priority 1998, dated 2007).
# Tests used:
# primary breast cancer = experiment: r-hCG in newly diagnosed primary breast cancer: cell proliferation by Ki67 immunocytochemistry; type: in vivo, human; details: nine r-hCG patients with positive lymph nodes at surgery; compared with needle biopsy
# Method: (§1) The efficacy of hCG was evaluated by treating with this hormone patients with newly diagnosed primary breast cancer. The efficacy of treatment was assessed by determining whether administration of 10,000 IU hCG on alternate days for 2 weeks to women with newly diagnosed breast cancer will reduce tumor size, inhibit cell proliferation, and modify the percentage of cells expressing estrogen and progesterone receptors. The systemic effect of the hormone was evaluated by determining serum levels of pituitary and ovarian hormones at various times of treatment. R-hCG was used in this study.
# Patient Selection and Accrual. Twenty-five postmenopausal women took part in the study. The patients had palpable and bidemensionally measurable primary breast cancer larger than 1.5 cm in clinical diameter. The tumor was confirmed by histopathological analysis. No evidence of metastatic disease was observed when entering the study. Patients had adequate bone marrow, hepatic and renal function. Patients with ulcerated tumors, skin involvement of inflammatory breast cancer were excluded. No concomitant pituitary nor ovarian tumors were observed among the patients. There was no active thrombophlebitis or a history of allergy to hCG. None of the patients had hormonal replacement therapy. […] The primary tumor was measured by clinical examination, mammography and sonography immediately before surgery. […]
# neoplastic KS cells = details: cited from earlier work
# estrogen receptor (ER) = experiment: r-hCG in primary breast cancer: estrogen receptor immunocytochemistry; type: in vivo, human; details: positive = greater than 20% of tumoral cells, 2-week r-hCG treatment
# Method: as §1
# Hormonal Treatment: Dose and Schedule. […] The efficacy of treatment was assessed by evaluating in the residual tumor resected by lumpectomy or mastectomy at the end of the two-week r-hCG treatment the same parameters evaluated in the initial core needle biopsies.
# Surrogate Marker Analysis. The effects of r-hCG on the breast tumors was evaluated by using immunocytochemistry, performed in both core biopsies of the tumor and in residual tumor present in lumpectomy or mastectomy specimens. The following surrogate markers were evaluated using immunocytochemistry: Rate of cell proliferation, percentage of cells positive for estrogen (ER) and progesterone receptors (PgR) and immunoreactivity for inhibin. […]
substance,measurement,setting,value
"r-hCG: recombinant human chorionic gonadotropin, glycoprotein hormone composed of two non-covalently linked (α and β) subunits",rate of cell proliferation of metastatic cells in positive lymph nodes,primary breast cancer,significantly lower than in the needle biopsy
same,effect in the in vivo animal model or in vitro assay on KS cells,neoplastic KS cells,"Neither purified urinary nor purified recombinant hCG, subunits or fractions of hCG had any effect"
same,cases with decrease in ER status from positive NB to negative Exc.B,estrogen receptor (ER),six
same,cases with decrease in ER status from positive NB to negative Exc.B,estrogen receptor (ER); listed as Recombinant hCG,six out of nine
